Data on 33 compounds can be found in patent publication US20250195485A1, “PROPIONIC ACID DERIVATIVE AND MEDICAL USE THEREOF” (Xizang Haisco Pharmaceutical Co., Ltd., priority 2021, published 2025).

By UniProt entry, the sequences of proteins in these tests, tags left out. Residues count along the entry.
UniProt P05556, 21-798 limits assumed: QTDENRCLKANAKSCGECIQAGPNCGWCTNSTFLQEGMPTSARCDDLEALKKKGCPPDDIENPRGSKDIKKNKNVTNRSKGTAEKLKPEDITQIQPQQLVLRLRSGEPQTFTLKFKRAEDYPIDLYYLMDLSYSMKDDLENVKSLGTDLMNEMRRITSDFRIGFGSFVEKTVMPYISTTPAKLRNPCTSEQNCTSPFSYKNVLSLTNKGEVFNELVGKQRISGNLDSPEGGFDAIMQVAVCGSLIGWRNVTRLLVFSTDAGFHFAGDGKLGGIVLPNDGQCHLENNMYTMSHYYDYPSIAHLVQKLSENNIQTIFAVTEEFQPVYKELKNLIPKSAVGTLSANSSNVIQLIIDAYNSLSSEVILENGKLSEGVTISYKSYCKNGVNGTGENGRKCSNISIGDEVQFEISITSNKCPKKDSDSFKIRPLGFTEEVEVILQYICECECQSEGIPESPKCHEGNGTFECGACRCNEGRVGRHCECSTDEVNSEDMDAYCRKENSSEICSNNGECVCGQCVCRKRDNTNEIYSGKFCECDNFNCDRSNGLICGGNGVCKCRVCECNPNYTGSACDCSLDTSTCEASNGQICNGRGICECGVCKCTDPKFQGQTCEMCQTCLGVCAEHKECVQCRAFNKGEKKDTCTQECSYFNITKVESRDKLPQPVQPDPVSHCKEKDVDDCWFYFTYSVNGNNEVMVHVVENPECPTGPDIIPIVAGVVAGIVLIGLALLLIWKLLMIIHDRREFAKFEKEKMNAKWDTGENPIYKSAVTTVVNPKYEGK
UniProt P13612, 34-1032 limits assumed: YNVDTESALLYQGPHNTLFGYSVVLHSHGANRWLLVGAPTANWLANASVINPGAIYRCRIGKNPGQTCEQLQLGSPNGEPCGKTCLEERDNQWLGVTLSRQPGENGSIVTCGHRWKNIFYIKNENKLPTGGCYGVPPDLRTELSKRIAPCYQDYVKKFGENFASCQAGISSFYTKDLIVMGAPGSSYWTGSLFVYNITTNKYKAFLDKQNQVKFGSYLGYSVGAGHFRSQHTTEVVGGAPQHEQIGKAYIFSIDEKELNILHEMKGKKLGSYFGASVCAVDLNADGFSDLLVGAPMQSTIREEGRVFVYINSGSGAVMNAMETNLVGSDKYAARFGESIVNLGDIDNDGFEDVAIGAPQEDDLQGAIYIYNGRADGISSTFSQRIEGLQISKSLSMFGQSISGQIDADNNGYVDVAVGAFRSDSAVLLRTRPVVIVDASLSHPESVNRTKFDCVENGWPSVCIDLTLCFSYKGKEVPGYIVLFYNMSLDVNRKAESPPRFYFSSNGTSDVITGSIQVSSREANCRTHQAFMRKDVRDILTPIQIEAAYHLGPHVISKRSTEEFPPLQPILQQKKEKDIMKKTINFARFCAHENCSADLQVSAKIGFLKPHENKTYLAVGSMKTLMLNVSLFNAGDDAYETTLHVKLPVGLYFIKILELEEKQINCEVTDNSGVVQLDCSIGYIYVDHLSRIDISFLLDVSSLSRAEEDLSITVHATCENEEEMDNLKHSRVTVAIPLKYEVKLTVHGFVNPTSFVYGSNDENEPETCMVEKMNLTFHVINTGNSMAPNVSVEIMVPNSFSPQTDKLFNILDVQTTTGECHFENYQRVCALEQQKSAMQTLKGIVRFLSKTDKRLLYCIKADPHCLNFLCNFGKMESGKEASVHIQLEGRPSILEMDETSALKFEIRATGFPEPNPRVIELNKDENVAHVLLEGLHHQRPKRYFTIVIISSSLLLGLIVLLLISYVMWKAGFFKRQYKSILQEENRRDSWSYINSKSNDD
UniProt P26010, 20-798 limits assumed: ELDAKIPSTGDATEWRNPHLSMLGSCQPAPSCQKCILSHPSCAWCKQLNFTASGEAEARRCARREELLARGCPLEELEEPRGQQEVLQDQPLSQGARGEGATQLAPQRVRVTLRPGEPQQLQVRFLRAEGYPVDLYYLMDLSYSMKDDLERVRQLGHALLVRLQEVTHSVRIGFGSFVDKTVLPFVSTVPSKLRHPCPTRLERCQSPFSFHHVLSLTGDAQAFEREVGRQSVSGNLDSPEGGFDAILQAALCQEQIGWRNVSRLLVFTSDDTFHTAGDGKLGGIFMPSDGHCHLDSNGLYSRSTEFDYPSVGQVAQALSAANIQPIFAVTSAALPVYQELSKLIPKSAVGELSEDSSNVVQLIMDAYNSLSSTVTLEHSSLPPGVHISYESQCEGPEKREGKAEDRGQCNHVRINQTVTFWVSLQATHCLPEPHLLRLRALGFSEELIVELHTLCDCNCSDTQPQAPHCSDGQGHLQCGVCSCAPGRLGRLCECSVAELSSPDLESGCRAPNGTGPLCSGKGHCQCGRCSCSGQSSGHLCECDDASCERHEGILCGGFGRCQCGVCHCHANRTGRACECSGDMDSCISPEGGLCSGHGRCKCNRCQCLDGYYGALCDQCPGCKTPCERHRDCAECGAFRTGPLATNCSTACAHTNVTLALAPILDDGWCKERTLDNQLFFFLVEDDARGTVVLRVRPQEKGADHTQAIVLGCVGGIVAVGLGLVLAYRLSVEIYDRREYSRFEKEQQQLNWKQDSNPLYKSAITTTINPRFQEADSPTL

The structures appear in SMILES notation. Where two headings read alike, the source gives them in different places. Bounds are passed on as bounds.

The target of one data set is integrin α4β1 (Homo sapiens, UniProt P05556+P13612). As to the kind of experiment: Integrin α4β1-mediated cell adhesion assay (Jurkat cells on VCAM). It counts as cell-based. The conditions noted are these: read-out: Jurkat (α4β1)/VCAM-1 IC50, Jurkat cells adhering to VCAM-1.
A further data set addresses integrin α4β7 (Homo sapiens, UniProt P13612+P26010). As to the kind of experiment: Integrin α4β7-mediated cell adhesion assay (RPM18866 cells on MAdCAM-1). The settings on record: for IC50: read-out: RPMI-8866 (α4β7)/MadCAM-1 IC50, RPMI-8866 cells adhering to MAdCAM-1; for α4β1/α4β7: selectivity ratio of α4β1 IC50 to α4β7 IC50 in cell adhesion. In kind it is cell-based.

Data set [1] can be described thus: Pharmacokinetic test in mice. The conditions noted are these: male BALB/c mice; for CL / AUC: plasma, groups: intravenously 1 mg/kg, intragastrically 10 mg/kg (route for this parameter not stated); for AUC: oral absorption results; for F: intragastrically 10 mg/kg vs intravenously 1 mg/kg.

A word on the AUC: it is concentration integrated over time. A low value points to less exposure.

`Cc1cc(C)c(-c2cc(C(CC(=O)O)NC(=O)C(CC(C)C)n3cc(CCN(C)C)c(C(F)(F)F)cc3=O)cc3c2CCC3)c(C)c1` (stereo not drawn): the results for the IC50 at integrin α4β1 (tested form: TFA) and on integrin α4β7 (tested form: TFA) were 172 nM and less than 0.5 nM, respectively. Further, the α4β1/α4β7 at integrin α4β7 (tested form: TFA) is listed as greater than 100.
With `Cc1cc(F)cc(C)c1-c1cc(C(CC(=O)O)NC(=O)C(CC(C)C)n2cc(CCN3C[C@@H]4C[C@H]3CO4)c(C(F)(F)F)cc2=O)cc2c1CCC2` (stereo partly drawn), the IC50 at integrin α4β1 is 25.6 nM. Moreover, at integrin α4β7, the IC50 was less than 0.5 nM and the α4β1/α4β7 was greater than 100.
Regarding `Cc1cc(F)cc(C)c1-c1cc(C(CC(=O)O)NC(=O)C(CC(C)C)n2cc(CCN(C)C3CC3)c(C(F)(F)F)cc2=O)cc2c1CCC2` (stereo not drawn), the IC50 on integrin α4β7 was less than 10 nM.
Consider `Cc1cccc(C)c1-c1cc(C(CC(=O)O)NC(=O)C(CC(C)C)n2cc(CCN3CC(F)C3)cc(F)c2=O)cc2nccn12` (stereo not drawn), for which the IC50 at integrin α4β1 came out at 34.7 nM. Further, at integrin α4β7, the IC50 is less than 0.5 nM and the α4β1/α4β7 is on record as greater than 100.
In the case of `C#Cc1ncc(C(CC(=O)O)NC(=O)C(CC(C)C)n2ccc(C)cc2=O)cc1-c1c(C)cccc1C` (stereo not drawn), the IC50 on integrin α4β7 (tested form: TFA) was less than 0.5 nM.
As for `Cc1cc(F)cc(C)c1-c1c(F)c(C(CC(=O)O)NC(=O)C(CC(C)C)n2cc(CCN(C)C)c(C(F)(F)F)cc2=O)c(F)c2c1CCC2` (stereo not drawn), the IC50 at integrin α4β1 is 95.2 nM. Besides, in data set [1], the CL turned out to be 16.3 mL/min/kg, the AUC stood at 3119 ng·h/mL and the F was determined as 30.3%. On integrin α4β7, the IC50 is less than 0.5 nM and the α4β1/α4β7 is given as greater than 500.
As for `Cc1ccn(C(CC(C)C)C(=O)NC(CC(=O)O)c2cc(-c3c(C)cccc3C)nc(C)c2F)c(=O)c1` (stereo not drawn), on integrin α4β7 (tested form: ammonium salt), the IC50 was less than 10 nM.
In the case of `Cc1cc(-c2c(C)cc(F)cc2C)cc(C(CC(=O)O)NC(=O)C(CC(C)C)n2cc(C3CCN(C)CC3)c(C(F)(F)F)cc2=O)c1F` (stereo not drawn), the IC50 at integrin α4β1 was 3.86 nM. For the same compound, on integrin α4β7, the IC50 was less than 0.5 nM and the α4β1/α4β7 is recorded as greater than 100.
As to `Cc1cc(C)c(-c2cc(C(CC(=O)O)NC(=O)C(CC(C)C)n3cc(CCN4CCC4)c(C(F)(F)F)cc3=O)cn3ccnc23)c(C)c1` (stereo not drawn), the IC50 on integrin α4β7 (tested form: TFA) is less than 10 nM.
On to `Cc1ccn(C(CC(C)C)C(=O)NC(CC(=O)O)c2cc(-c3c(C)cccc3C)c3nccn3c2)c(=O)c1` (stereo not drawn), for which the IC50 at integrin α4β7 (tested form: TFA) was less than 10 nM.
`Cc1cc(F)cc(C)c1-c1cc(C(CC(=O)O)NC(=O)C(CC(C)C)n2cc(CCn3ccnc3)c(C(F)(F)F)cc2=O)cc2c1CCC2` (stereo not drawn): the IC50 on integrin α4β7 (tested form: TFA) is less than 10 nM.
As to `Cc1cc(F)cc(C)c1-c1cc(C(CC(=O)O)NC(=O)C(CC(C)C)n2cc(CCN(C)C)c(C(F)(F)F)cc2=O)cn2ccnc12` (stereo not drawn), the IC50 on integrin α4β1 (tested form: ammonium salt) is 6.58 nM. Also, on integrin α4β7 (tested form: ammonium salt), the IC50 is less than 0.5 nM and the α4β1/α4β7 is given as greater than 100.
As to `Cc1cc(F)cc(C)c1-c1cc(C(CC(=O)O)NC(=O)C(CC(C)C)n2cc(CCN3CCC3)c(C(F)(F)F)cc2=O)cn2ccnc12` (stereo not drawn), the IC50 on integrin α4β7 was less than 0.5 nM.
Take `Cc1cc(F)cc(C)c1-c1cc(C(CC(=O)O)NC(=O)C(CC(C)C)n2cc(CCN3CC4CCC(C3)N4C)c(C(F)(F)F)cc2=O)cc2c1CCC2` (stereo not drawn): the IC50 at integrin α4β1 (tested form: TFA) came to 41 nM. Also, on integrin α4β7 (tested form: TFA), the IC50 was less than 0.5 nM and the α4β1/α4β7 is greater than 100.
Take `COc1cc(C)n(C)c(=O)c1-c1cc(C)c(F)c(C(CC(=O)O)NC(=O)C(CC(C)C)n2cc(CCN(C)C)c(C(F)(F)F)cc2=O)c1` (stereo not drawn): on integrin α4β7, the IC50 is less than 10 nM.
As to `C#Cc1cc(-c2c(C)cc(F)cc2C)c(F)c(C(CC(=O)O)NC(=O)C(CC(C)C)n2cc(CCN3CCC3)c(C(F)(F)F)cc2=O)c1F` (stereo not drawn), at integrin α4β7 (tested form: TFA), the IC50 is less than 0.5 nM.
Regarding `CC#Cc1cc(-c2c(C)cc(C)cc2C)c(F)c(C(CC(=O)O)NC(=O)C(CC(C)C)n2cc(CCN(C)C)c(C(F)(F)F)cc2=O)c1F` (stereo not drawn), on integrin α4β1, the IC50 amounted to 54.7 nM. In data set [1], this compound came in with a CL of 10.0 mL/min/kg and an AUC of 4104 ng·h/mL. Further, at integrin α4β7, the IC50 is less than 0.5 nM and the α4β1/α4β7 is greater than 100.
`Cc1cc(F)cc(C)c1-c1cc(C(CC(=O)O)NC(=O)C(CC(C)C)n2cc(CCN3C[C@H]4C[C@@H]3CO4)c(C(F)(F)F)cc2=O)cc2c1CCC2` (stereo partly drawn): the IC50 on integrin α4β1 came out at 35.5 nM. At integrin α4β7, the IC50 was less than 0.5 nM and the α4β1/α4β7 is listed as greater than 100.
Turning to `Cc1cc(F)cc(C)c1-c1cc(C(CC(=O)O)NC(=O)C(CC(C)C)n2cc(CCN(C)C)c(C(F)(F)F)cc2=O)c2ccccc2c1` (stereo not drawn), the IC50 at integrin α4β7 was less than 0.5 nM.
Take `Cc1cc(F)cc(C)c1-c1cc(C(CC(=O)O)NC(=O)C(CC(C)C)n2cc(CCN3CCCOCC3)c(C(F)(F)F)cc2=O)cc2c1CCC2` (stereo not drawn): the IC50 on integrin α4β1 (tested form: TFA) came out at 128 nM. For the same compound, on integrin α4β7 (tested form: TFA), the IC50 is less than 0.5 nM and the α4β1/α4β7 is given as greater than 500.
With `Cc1cc(C=C(F)F)cc(C)c1-c1cc(C(CC(=O)O)NC(=O)C(CC(C)C)n2cc(CCN(C)C)c(C(F)(F)F)cc2=O)cc2c1CCC2` (single isomer, unassigned) [Compound 43-1], the IC50 was greater than 4000 nM on integrin α4β1 and less than 20 nM at integrin α4β7.
Consider `Cc1cc(F)cc(C)c1-c1cc(C(CC(=O)O)NC(=O)C(CC(C)C)n2cc(CCN3CCC3)c(C(F)(F)F)cc2=O)cc2nccn12` (stereo not drawn), for which the IC50 at integrin α4β7 was less than 0.5 nM.
In the case of `COc1ncc(C(CC(=O)O)NC(=O)C(CC(C)C)n2ccc(C)cc2=O)cc1-c1c(C)cccc1C` (stereo not drawn), the IC50 at integrin α4β7 (tested form: TFA) was less than 10 nM.
Regarding `Cc1cc(F)cc(C)c1-c1cc(C(CC(=O)O)NC(=O)C(CC(C)C)n2cc(CCN3CCC4(CC4)C3)c(C(F)(F)F)cc2=O)cc2c1CCC2` (stereo not drawn), the IC50 at integrin α4β7 was less than 0.5 nM.
Regarding `C#Cc1ncc(C(CC(=O)O)NC(=O)C(CC(C)C)n2cc(CCN3CCC3)c(C(F)(F)F)cc2=O)cc1-c1c(C)cc(F)cc1C` (stereo not drawn), the IC50 at integrin α4β7 is less than 0.5 nM.
Turning to `CC#Cc1cc(-c2c(C)cccc2C)c(F)c(C(CC(=O)O)NC(=O)C(CC(C)C)n2cc(CCN(C)C)c(C(F)(F)F)cc2=O)c1F` (stereo not drawn), at integrin α4β1, the IC50 came out at 167 nM. In data set [1], the CL turned out to be 17.7 mL/min/kg and the AUC is 2506 ng·h/mL. Moreover, at integrin α4β7, the IC50 was less than 0.5 nM and the α4β1/α4β7 is reported as greater than 500.
Consider `C#Cc1ncc(C(CC(=O)O)NC(=O)C(CC(C)C)n2cc(CCN(C)C)c(C(F)(F)F)cc2=O)cc1-c1c(C)cccc1C` (stereo not drawn), for which the IC50 at integrin α4β1 (tested form: TFA) was 130 nM. In addition, on integrin α4β7 (tested form: TFA), the IC50 was less than 0.5 nM and the α4β1/α4β7 is greater than 500.
On to `COCC1CN(CCc2cc(F)c(=O)n(C(CC(C)C)C(=O)NC(CC(=O)O)c3cc(-c4c(C)cccc4C)cc(C)c3F)c2)C1` (stereo not drawn), for which, on integrin α4β7, the IC50 was less than 10 nM.
Consider `CC#Cc1cc(F)c(C(CC(=O)O)NC(=O)C(CC(C)C)n2cc(CCN(C)C)c(C(F)(F)F)cc2=O)c(F)c1-c1c(C)cc(F)cc1C` (stereo not drawn), for which the IC50 on integrin α4β1 (tested form: TFA) was 7.93 nM. Also, on integrin α4β7 (tested form: TFA), the IC50 was less than 0.5 nM and the α4β1/α4β7 is greater than 100.
In the case of `Cc1cc(F)cc(C)c1-c1cc(C(CC(=O)O)NC(=O)C(CC(C)C)n2cc(CCN(C)C)c(C(F)(F)F)cc2=O)cc2c1CCC2` (stereo not drawn) [Compound 30-2], at integrin α4β1, the IC50 was found to be 66.8 nM. Also, at integrin α4β7, the IC50 was less than 0.5 nM and the α4β1/α4β7 is listed as greater than 100.
With `C#Cc1cc(-c2c(C)cc(F)cc2C)c(F)c(C(CC(=O)O)NC(=O)C(CC(C)C)n2cc(CCN(C)C)c(C(F)(F)F)cc2=O)c1F` (stereo not drawn), the IC50 on integrin α4β1 (tested form: TFA) stood at 66 nM. Also, at integrin α4β7 (tested form: TFA), the IC50 was less than 0.5 nM and the α4β1/α4β7 was greater than 100.
Turning to `C#Cc1ncc(C(CC(=O)O)NC(=O)C(CC(C)C)n2cc(CCN(C)C)c(C(F)(F)F)cc2=O)cc1-c1c(C)cc(F)cc1C` (stereo not drawn), on integrin α4β1, the IC50 was determined as 16.3 nM. Moreover, on integrin α4β7, the IC50 is less than 0.5 nM and the α4β1/α4β7 is given as greater than 100.
Turning to `Cc1cc(C=C(F)F)cc(C)c1-c1cc(C(CC(=O)O)NC(=O)C(CC(C)C)n2cc(CCN(C)C)c(C(F)(F)F)cc2=O)cc2c1CCC2` (single isomer, unassigned) [Compound 43-2], the IC50 at integrin α4β1 was found to be 34.3 nM. Besides, in data set [1], the CL came to 41.6 mL/min/kg, the AUC amounted to 1938 ng·h/mL and the F came to 47.1%. Besides, at integrin α4β7, the IC50 is less than 0.5 nM and the α4β1/α4β7 was greater than 90.
